Measured values from patent US20240285765A1, “PHTHALOCYANINE DYE COMPOUNDS, CONJUGATES AND METHODS OF USE THEREOF” (Rakuten Medical, Inc., priority 2021, published 2024).

Experiment: Thermodynamic solubility in pH 7.4 DPBS, UV quantification
Format: physicochemical
Conditions: 24 hours, room temperature (25° C.)
Protocol: A working 1 mM stock solution of the test compound in DMSO was prepared from a 10 mM DMSO stock solution. A spectrum scan from 220 nm to 1000 nm of this working solution was performed in a 96-well UV plate to identify the wavelength maxima. […] The selected stock solution was serially diluted in DMSO to confirm linearity and generate a seven to eight-point calibration curve. Of note, only linear points were considered in the curve.
The resulting solution was placed on a RotoSpin™ shaker at 50 rpm for 24 hours at room temperature (25° C.). The solution was then filtered using a 0.45 μm PVDF filter to remove any insoluble fraction of the compound. A 150 μL aliquot of the filtrate was taken for quantification using UV spectroscopy (POLARstar Omega BMG Plate Reader). The optical densities of the standard solutions and the test sample were acquired at the same wavelength maxima. The test sample concentration was calculated from its optical density using the linearity/calibration curve.

Substance: Sodium 2-((19-((dimethyl(3-(tris(3-sulfonatopropyl)ammonio)propyl)silyl)oxy)-19H-6,11-(azeno)-17,21-(azeno[3]episoindoloazeno)benzo[7,8][1,3,5,10]tetraaza[2]silacycloundecino[4,3-a:11,1-a′]diisoindol-19-yl)oxy)-2-methyl-6,6-bis(3-sulfonatopropyl)-9,12-dioxa-6-aza-2-silapentadecan-6-ium-15-oate [Example 21]
- Solubility* (thermodynamic solubility): C (C: >100 μg/mL)
